Drawing on patent US20060079453A1, “Hla binding peptides and their uses” (priority 2002, published 2006), this text covers IC50 for 17 compounds.

Chains of the proteins cited; added tags and fusions are not shown. Residues count along the entry.
UniProt Q30154, 30-266: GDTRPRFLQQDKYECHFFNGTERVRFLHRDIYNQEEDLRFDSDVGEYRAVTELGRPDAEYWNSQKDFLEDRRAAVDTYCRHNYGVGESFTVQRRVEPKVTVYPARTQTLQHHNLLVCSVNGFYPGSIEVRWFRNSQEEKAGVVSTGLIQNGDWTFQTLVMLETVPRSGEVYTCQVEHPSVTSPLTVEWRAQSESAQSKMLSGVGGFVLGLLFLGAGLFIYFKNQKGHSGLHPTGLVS

Common to all, as to assay: biochemical
In one experiment the target is HLA-A*0202 (Homo sapiens, UniProt P04439, D140Y/D185E/D98H/E176V/E277Q/G131W/G231S/I119L/I121R/I166T/I218V/L180W/L300P/L318F/N151K/N90K/P208A/P217A/Q67R/Q86G/Q94H/R138H/R169H/T345S). The format is binding.
The target in another experiment is HLA-A*6802 (Homo sapiens, UniProt P04439, A269V/D140Y/D185E/E176V/E277Q/E87N/F33Y/G231S/I121R/I166T/I218V/L180W/L300P/L318F/N151K/P208A/P217A/Q86R/R138H/R169H/S129P/T345S/V36M). The format is binding.
A further experiment addresses HLA-A*0203 (Homo sapiens, UniProt P04439, A173T/D140Y/D185E/D98H/E277Q/G131W/G231S/I119V/I121R/I166T/I218V/L180W/L300P/L318F/N151K/N90K/P208A/P217A/Q86G/Q94H/R138H/R169H/T345S). The format is binding.
A further experiment deals with HLA-A*3101 (Homo sapiens, UniProt P04439, A270S/D185E/E176V/E277Q/F33T/G231S/G80R/H175R/I121M/I218V/I322F/K168Q/L300P/L318F/M331R/P217A/Q94H/R138Q/T323A/T345S/T97I/V358M). The format is binding.
The target of the next experiment is HLA-A*1101 (Homo sapiens, UniProt P04439, A114D/D185E/E176A/F33Y/L180Q/S129P/T187R). The format is binding.
In the next experiment the target is HLA-DR DRB1*0301 (DR3) (Homo sapiens, UniProt P01903+P01911, A100K/A102G/A103R/A169T/F55Y/I96L/K41T/L162R/M171V/P40S/Q125H/Q178H/Q39Y/R42S/S66N/T106N/T262R/W38E/Y61H). The format is binding.
Another experiment deals with HLA-DR DRB1*1101 (DR11) (Homo sapiens, UniProt P01903+P01911, A100R/A169T/A87E/I96F/K41T/L162R/M171V/P40S/Q125H/Q178H/Q39Y/Q99D/R42S/S66Y/T262R/V115G/W38E). The format is binding. Particulars: DRB1 *1101.
A further experiment has as its target HLA-DR DRB1*0802 (DR8) (Homo sapiens, UniProt P01903+P01911, A100R/A103L/A169T/F76Y/H45Y/I96F/K41T/L162R/M171V/P40S/Q125H/Q178H/Q39Y/Q99D/R218S/R42G/S66Y/V115G/W38E). The format is binding.
A further experiment deals with HLA-DR DRB5*0101 (DR51) (Homo sapiens, UniProt P01903+Q30154). The format is binding. The note with it: DRB5 *0101.
The target of experiment [1] is HLA-DQ DQA1*0301/B*0302 (DQ8) (Homo sapiens, UniProt P01909+P01920, A209T/A45G/C70Q/D89A/DUP78-78/E183D/E77G/F237L/G63E/H199R/I129T/K197E/L178F/L74F/L98V/Q57E/Q76R/S185I/S97I/T217I/T49S/V73L/Y58L).
The next experiment deals with HLA-DR DRB1*0701 (DR7) (Homo sapiens, UniProt P01903+P01911, A100R/A102G/A103Q/D57E/D86V/E43K/F76Y/K127E/L162R/M171V/P40G/Q125H/Q99D/R33Q/R42Y/R54Q/S133A/S66F/T210M/V115G/Y107V/Y59L/Y89S). The format is binding. The note with it: DRB1 *0701.
Experiment [2] concerns the target HLA-DQ DQA1*0501/B*0201 (DQ2) (Homo sapiens, UniProt P01909+P01920, A45G/A70V/D89A/E106A/E77G/E98D/H199R/L107V/N214S/P84L/P87L/T103K/T109R/T172A/T60S/V78E/V99I/Y58L/Y62S/Y69I/Y79F).
Another experiment has as its target HLA-A*0201 (Homo sapiens, UniProt P04439, D140Y/D185E/D98H/E176V/E277Q/G131W/G231S/I119V/I121R/I166T/I218V/L300P/L318F/N151K/N90K/P208A/P217A/Q86G/Q94H/R138H/R169H/T345S). The format is binding. The note with it: read-out: A*0201 binding affinity (expressed as an IC50).
Setting [3] is: A*0202 binding affinity (expressed as an IC50).
The mark [4] stands for this setting: A*6802 binding affinity (expressed as an IC50).
Where [5] appears, read: A*0203 binding affinity (expressed as an IC50).
The mark [6] stands for this setting: read-out: A*6802 binding affinity (expressed as an IC50).

What is called IC50 is the concentration at which inhibition is half-maximal.

Like-named read-outs stand apart in the source and are kept apart here.

Consider `CC[C@H](C)[C@H](NC(=O)[C@H](Cc1ccc(O)cc1)NC(=O)[C@H](CC(C)C)NC(=O)[C@H](CC(C)C)NC(=O)[C@@H](N)Cc1ccccc1)C(=O)N[C@@H](CC(C)C)C(=O)N[C@@H](Cc1ccccc1)C(=O)N[C@@H](CC(C)C)C(=O)N[C@H](C(=O)O)C(C)C`, for which the IC50 on HLA-A*0202 (setting [3]) was 279 nM; on HLA-A*6802 (setting [4]), 6980 nM; at HLA-A*0203 (setting [5]) it was 3090 nM.

In turn, `CC[C@H](C)[C@H](NC(=O)[C@H](CC(=O)O)NC(=O)[C@H](CC(C)C)NC(=O)[C@H](CCC(N)=O)NC(=O)[C@@H](NC(=O)[C@@H](NC(=O)[C@@H](N)Cc1ccccc1)C(C)C)C(C)C)C(=O)N[C@@H](CCC(N)=O)C(=O)N[C@@H](CO)C(=O)N[C@H](C(=O)N[C@@H](CCCCN)C(=O)O)[C@@H](C)O` yielded an IC50 at HLA-A*3101 of 48600 nM. On HLA-A*3101, `CC(C)C[C@H](NC(=O)[C@H](CCCCN)NC(=O)[C@H](CCC(=O)O)NC(=O)[C@H](CC(C)C)NC(=O)[C@@H](NC(=O)[C@@H](NC(=O)CN)[C@@H](C)O)[C@@H](C)O)C(=O)N[C@H](C(=O)N[C@@H](CC(N)=O)C(=O)N[C@@H](CCCNC(=N)N)C(=O)O)[C@@H](C)O` displayed an IC50 of 382 nM. In turn, `CC[C@H](C)[C@H](N)C(=O)N[C@@H](CC(C)C)C(=O)N[C@@H](Cc1ccc(O)cc1)C(=O)N[C@@H](CCCNC(=N)N)C(=O)N[C@@H](CC(=O)O)C(=O)N[C@@H](CS)C(=O)N[C@H](C(=O)N[C@@H](C)C(=O)N[C@@H](Cc1ccc(O)cc1)C(=O)O)[C@@H](C)CC` gave an IC50 at HLA-A*3101 of 53200 nM. For the compound `CC[C@H](C)[C@H](N)C(=O)N[C@@H](CC(C)C)C(=O)N[C@@H](Cc1ccc(O)cc1)C(=O)N[C@@H](CO)C(=O)N[C@@H](C)C(=O)N[C@@H](Cc1c[nH]cn1)C(=O)N[C@@H](CC(=O)O)C(=O)N[C@H](C(=O)N[C@H](C(=O)N[C@H](C(=O)O)C(C)C)[C@@H](C)O)[C@@H](C)O`, the IC50 at HLA-A*0202 (setting [3]) came to 1.1 nM; at HLA-A*6802 (setting [4]), 6280 nM; at HLA-A*0203 (setting [5]), 13 nM.

`CC[C@H](C)[C@H](NC(=O)CNC(=O)[C@H](CC(C)C)NC(=O)[C@@H](NC(=O)[C@@H](N)CCCCN)[C@@H](C)O)C(=O)N[C@@H](CO)C(=O)N[C@@H](Cc1ccc(O)cc1)C(=O)NCC(=O)N[C@@H](CCCNC(=N)N)C(=O)N[C@@H](CCCCN)C(=O)N[C@@H](CCCCN)C(=O)O` yielded an IC50 at HLA-A*1101 of 285 nM. With `CC(C)C[C@H](NC(=O)[C@@H](N)CC(C)C)C(=O)N[C@@H](Cc1ccccc1)C(=O)N[C@@H](Cc1ccc(O)cc1)C(=O)N[C@@H](CO)C(=O)N[C@@H](CCCCN)C(=O)N[C@H](C(=O)N[C@@H](CCCNC(=N)N)C(=O)N[C@@H](CCCNC(=N)N)C(=O)O)C(C)C`, the IC50 on HLA-A*3101 amounted to 38 nM.

The compound `CC[C@H](C)[C@H](NC(=O)[C@H](CO)NC(=O)[C@H](CO)NC(=O)[C@@H](NC(=O)[C@H](Cc1ccccc1)NC(=O)[C@@H](NC(=O)[C@H](CCSC)NC(=O)[C@H](CCC(N)=O)NC(=O)[C@@H](N)CC(N)=O)[C@@H](C)CC)C(C)C)C(=O)O` came in with an IC50 at HLA-A*6802 (setting [4]) of 198 nM. For `CC(C)C[C@H](NC(=O)[C@H](CC(=O)O)NC(=O)[C@H](Cc1ccc(O)cc1)NC(=O)[C@@H](NC(=O)[C@H](CC(N)=O)NC(=O)[C@H](CO)NC(=O)[C@H](CC(=O)O)NC(=O)[C@H](CO)NC(=O)[C@H](C)NC(=O)CNC(=O)[C@H](Cc1ccc(O)cc1)NC(=O)[C@@H](NC(=O)[C@H](CC(C)C)NC(=O)[C@H](CO)NC(=O)[C@@H](N)CC(N)=O)C(C)C)C(C)C)C(=O)O`, the IC50 is 81200 nM on HLA-DR DRB1*0301 (DR3); > 15400 nM against HLA-DR DRB1*1101 (DR11); > 33300 nM at HLA-DR DRB1*0802 (DR8); > 13000 nM against HLA-DR DRB5*0101 (DR51); 8340 nM in experiment [1]. For the compound `C[C@H](NC(=O)[C@H](C)NC(=O)[C@H](Cc1ccc(O)cc1)NC(=O)[C@H](C)NC(=O)[C@H](C)NC(=O)[C@@H]1CCCN1)C(=O)N[C@@H](CCC(N)=O)C(=O)NCC(=O)N[C@@H](Cc1ccc(O)cc1)C(=O)N[C@@H](CCCCN)C(=O)O`, 456 nM corresponded to half-maximal inhibition against HLA-A*1101 (IC50). In the case of `CC(C)C[C@H](NC(=O)[C@H](C)NC(=O)[C@H](CCC(N)=O)NC(=O)CNC(=O)[C@@H](N)CCCNC(=N)N)C(=O)N[C@@H](CC(C)C)C(=O)N[C@H](C(=O)N[C@@H](CC(N)=O)C(=O)N[C@@H](CO)C(=O)N[C@@H](CO)C(=O)N[C@@H](CCC(N)=O)C(=O)N1CCC[C@H]1C(=O)N[C@@H](Cc1c[nH]c2ccccc12)C(=O)N[C@@H](CCC(=O)O)C(=O)N1CCC[C@H]1C(=O)O)C(C)C`, the IC50 was 319 nM against HLA-DR DRB1*0701 (DR7); 93900 nM on HLA-DR DRB1*0301 (DR3); 7700 nM on HLA-DR DRB1*1101 (DR11); 29500 nM against HLA-DR DRB1*0802 (DR8); 13400 nM in experiment [2]. `CC[C@H](C)[C@H](NC(=O)[C@@H](N)CO)C(=O)N1CCC[C@H]1C(=O)N[C@@H](Cc1c[nH]cn1)C(=O)N[C@@H](C)C(=O)N[C@@H](C)C(=O)N[C@@H](CS)C(=O)N[C@@H](Cc1c[nH]cn1)C(=O)N[C@@H](CCCNC(=N)N)C(=O)O` gave an IC50 against HLA-A*1101 of 352 nM. On to `CSCC[C@H](NC(=O)[C@H](CCCNC(=N)N)NC(=O)[C@H](CCCCN)NC(=O)[C@H](Cc1c[nH]c2ccccc12)NC(=O)[C@H](C)NC(=O)[C@H](Cc1ccc(O)cc1)NC(=O)[C@H](Cc1ccccc1)NC(=O)[C@H](CC(N)=O)NC(=O)[C@@H](NC(=O)[C@H](CCCCN)NC(=O)[C@@H](NC(=O)[C@H](CC(=O)O)NC(=O)[C@@H]1CCCN1C(=O)[C@@H](N)C(C)C)[C@@H](C)O)C(C)C)C(=O)N[C@@H](CCC(=O)O)C(=O)O`, for which the IC50 in experiment [1] was > 46700 nM; in experiment [2], > 147000 nM. On HLA-A*1101, `CC[C@H](C)[C@H](NC(=O)[C@H](CCCCN)NC(=O)[C@@H](NC(=O)[C@@H](NC(=O)[C@@H](N)C(C)C)[C@@H](C)O)C(C)C)C(=O)NCC(=O)NCC(=O)N[C@@H](CCC(N)=O)C(=O)N[C@@H](CC(C)C)C(=O)N[C@@H](CCCNC(=N)N)C(=O)O` gave an IC50 of 194 nM.

In the case of `CC[C@H](C)[C@H](NC(=O)[C@H](CCCNC(=N)N)NC(=O)[C@H](CC(C)C)NC(=O)[C@H](CC(=O)O)NC(=O)[C@H](C)NC(=O)[C@@H](NC(=O)[C@@H](N)C(C)C)C(C)C)C(=O)N[C@H](C(=O)N[C@@H](Cc1ccc(O)cc1)C(=O)N[C@@H](CCCNC(=N)N)C(=O)O)C(C)C`, half-maximal inhibition on HLA-A*3101 (IC50) required 41 nM. As to ALGTTGYV, the IC50 is 6.7 nM on HLA-A*0202 (read-out: A*0202 binding affinity (expressed as an IC50)), 28300 nM on HLA-A*6802 (setting [6]) and 93 nM at HLA-A*0201. With LLWQPIPVTIV, the results for the IC50 at HLA-A*6802 (setting [6]) and at HLA-A*0203 (read-out: A*0203 binding affinity (expressed as an IC50)) were 62 nM and 18 nM, respectively.
